These results are taken from PubChem BioAssay AID434977 (Johns Hopkins Ion Channel Center, 2010).

The chains behind the UniProt entries cited, without tags or fusion partners. Where a name states a change or a piece, a line headed by the entry shows the natural chain unless it says otherwise.
UniProt Q9QUQ5: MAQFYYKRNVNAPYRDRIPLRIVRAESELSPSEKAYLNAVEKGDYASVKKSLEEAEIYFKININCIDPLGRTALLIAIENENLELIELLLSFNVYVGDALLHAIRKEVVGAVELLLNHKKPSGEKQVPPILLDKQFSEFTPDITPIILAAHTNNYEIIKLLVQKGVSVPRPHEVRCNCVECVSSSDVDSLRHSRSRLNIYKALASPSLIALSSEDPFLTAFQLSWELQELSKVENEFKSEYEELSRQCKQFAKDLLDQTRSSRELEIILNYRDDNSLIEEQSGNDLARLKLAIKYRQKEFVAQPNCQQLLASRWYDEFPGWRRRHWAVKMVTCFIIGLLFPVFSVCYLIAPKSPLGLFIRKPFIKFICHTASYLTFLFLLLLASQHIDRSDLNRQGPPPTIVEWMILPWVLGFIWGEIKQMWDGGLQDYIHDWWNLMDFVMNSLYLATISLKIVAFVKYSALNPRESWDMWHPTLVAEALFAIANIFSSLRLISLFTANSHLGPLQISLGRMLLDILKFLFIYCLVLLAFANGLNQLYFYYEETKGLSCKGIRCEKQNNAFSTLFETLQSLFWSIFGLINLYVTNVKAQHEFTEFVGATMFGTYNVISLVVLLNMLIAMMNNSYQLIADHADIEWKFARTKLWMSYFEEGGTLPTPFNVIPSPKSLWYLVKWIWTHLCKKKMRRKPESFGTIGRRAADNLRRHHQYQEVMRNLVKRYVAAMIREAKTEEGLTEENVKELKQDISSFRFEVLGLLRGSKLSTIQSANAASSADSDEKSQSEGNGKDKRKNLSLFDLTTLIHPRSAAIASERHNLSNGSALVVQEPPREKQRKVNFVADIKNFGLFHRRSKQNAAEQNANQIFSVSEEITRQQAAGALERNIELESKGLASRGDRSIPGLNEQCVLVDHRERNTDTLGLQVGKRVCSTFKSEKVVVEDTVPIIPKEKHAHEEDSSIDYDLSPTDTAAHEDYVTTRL

The structures appear in SMILES notation. The entries are a selection whose mix differs from that of the whole data set. Activity calls are given as the source filed them.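 How the source made its calls: active means calcium signal rise above buffer-control mean plus 5 SD in both duplicates, and also a hit in the primary screen; inactive means the rest.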

This experiment addresses Short transient receptor potential channel 4 (Mus musculus) (UniProt Q9QUQ5). Put plainly: calcium flux activators in TRPC4/5HT1a cells, counter-screen for TRPC4 activator project, cell-based, second counter screen, HEK293 TRPC4/5HT1a, Fluo-4 (AID 434977).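 Further: plate controls were assay buffer for no effect and maximal serotonin response for full effect.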 To be noted: Fluo-4 calcium flux, at 10 µM, hits give high values.
Consider `CN(C)C1(CNC(=O)c2ccc(Cl)c(S(N)(=O)=O)c2)CCCCC1`, for which the activation is inactive: 0%.
